{"sequences": {"note": "Chains of the proteins cited; added tags and fusions are not shown. Lines headed by an entry give the natural chain unless they say otherwise; changes in a name come on top.", "UniProt Q9ULZ1": "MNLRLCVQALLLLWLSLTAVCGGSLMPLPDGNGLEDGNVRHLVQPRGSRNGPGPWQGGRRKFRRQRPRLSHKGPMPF"}, "source": "patent US20190328887A1", "target": "human APJ (apelin) receptor (human) (UniProt P35414)"}
{"substance": "pE13F (from UniProt Q9ULZ1) (peptide)", "values": [{"measurement": "IC50 cAMP", "value": 0.024, "unit": "µM"}]}
